This note sets out measurements from patent US9962369B2, “Methods and compositions for transdermal delivery” (SPRAYABLE HOLDINGS, INC., priority 2014, dated 2018).

The test system of this data set is human skin tissue. As to the kind of experiment: Penetration rate of AI compound in AI-helper composition through human skin in vitro, modified Franz cells. The settings on record: 25 °C; for Skin penetration rate of Al compound: Al compound 0.5% w/v.

Take Vitamin D: the “Skin penetration rate of Al compound” value turned out to be 13.179 ± 2.215 μg/cm^2/h (2-(Diethylamino)ethyl 2-(4-isobutylphenyl)propionate hydrochloride 6% w/v, water); 15.478 ± 2.126 μg/cm^2/h (D-Phenylalanine isopropyl ester hydrochloride 6% w/v, water); 0.72 ± 0.063 μg/cm^2/h (Dialkylaminoalkyl 2-(4-isobutylphenyl)propionate: None); 15.327 ± 2.032 μg/cm^2/h (L-Phenylalanine isopropyl ester hydrochloride 6% w/v, water); 0.072 ± 0.033 μg/cm^2/h (Phenylalanine ester: None). In addition, the “Skin penetration rate of AI compound” value (no isoleucine ester (None), AI compound 0.5 % w/v in water) is reported as 0.078 ± 0.037 μg/cm^2/h; the “Skin penetration rate of AI compound” value (no leucine ester (None), AI compound 0.5 % w/v in water) worked out at 0.082 ± 0.053 μg/cm^2/h; the “Skin penetration rate of AI compound” value (no tryptophan ester (None), AI compound 0.5 % w/v in water) came to 0.102 ± 0.113 μg/cm^2/h; the “Skin penetration rate of AI compound” value (with D-isoleucine isopropyl ester hydrochloride 6 % w/v in water, AI compound 0.5 % w/v) was determined as 13.315 ± 2.126 μg/cm^2/h; the “Skin penetration rate of AI compound” value (with D-leucine isopropyl ester hydrochloride 6 % w/v in water, AI compound 0.5 % w/v) stood at 13.139 ± 2.026 μg/cm^2/h; the “Skin penetration rate of AI compound” value (with D-tryptophan isopropyl ester hydrochloride 6 % w/v in water, AI compound 0.5 % w/v) is 15.138 ± 2.179 μg/cm^2/h. Also, the “Skin penetration rate of AI compound” value by setting is: (with L-isoleucine isopropyl ester hydrochloride 6 % w/v in water, AI compound 0.5 % w/v) 13.425 ± 2.132 μg/cm^2/h; (with L-leucine isopropyl ester hydrochloride 6 % w/v in water, AI compound 0.5 % w/v) 13.155 ± 2.112 μg/cm^2/h; (with L-tryptophan isopropyl ester hydrochloride 6 % w/v in water, AI compound 0.5 % w/v) 16.345 ± 2.912 μg/cm^2/h.
